From paper PMC4373786 come the findings set out here.

For this assay, the target named is angiotensin II receptor type 1 (AT1), non-BRET tagged (UniProt P30556). Particulars: scale: log of EC50.

As to angiotensin II (AngII) (peptide), the AngII LogEC50 of IP1 production, cells expressing AT1 receptor, 0 nM CCL2 is -8.61; the AngII LogEC50 of IP1 production, cells expressing AT1 receptor, 10 nM CCL2 is -8.65; the AngII LogEC50 of IP1 production, cells expressing AT1 receptor, 1000 nM CCL2 is -8.85.
